Laboratory results published in patent US20180362558A1, “AQUEOUS CURABLE COMPOSITION AND WATER-SOLUBLE PHOTOPOLYMERIZATION INITIATOR” (FUJIFILM CORPORATION, priority 2016, published 2018).

Test: Solubility in water
Assay type: physicochemical
Procedure: Herein, the compound having “water solubility” in the present disclosure is a compound that is soluble in water at 25° C. in an amount of 0.5 mass % or more.

- solubility in water: 2 mass %
Compound: CC(C)(O)C(=O)c1ccc(OCCO)cc1 [IRGACURE 2959]
